A549 viability = counter-screen for Nrf2 inhibitors: cytotoxicity in A549 cells. A549 ARE-Fluc cells, CellTiter-Fluor viability, 18-24 h. Potency, µM (titrated, usually from 46 µM), for the others: at the highest dose activity change, negative = cytotoxicity, usual class: inhibitors. hit rate 0.16% among 390,000; further: potency means the concentration at half of the fitted maximal effect; on the % scale 0 is the no-effect control and ±100 the full control effect
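A549 ARE_Fluc cells in 5% FBS OPTI-MEM were exposed to compounds in concentration-response for 18-24 h at 37 deg C. Viability was read by CellTiter-Fluor fluorescence (Ex 405/Em 525) after 30 min, before the luciferase read.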
Nrf2 block = Nrf2 pathway inhibition; A549 ARE-Fluc reporter, luciferase luminescence, 18-24 h; Potency, µM (doses to about 46 µM), for the others: at the highest dose activity change, negative = inhibition, actives largely listed as inhibitors; hit rate 2.1% among 360,000; AID 504444; further: potency means the concentration at half of the fitted maximal effect; on the % scale 0 is the no-effect control and ±100 the full control effect; nearly all actives have a fitted effect of over 60% in size
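A549 ARE_Fluc cells, 5000/well, 5% FBS OPTI-MEM; compounds in dose-response, 18-24 h at 37 °C/5% CO2; CellTiter-Fluor viability read (Ex 405/Em 525), then BugLite luciferase luminescence = Nrf2 activity.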
miR-21 reporter = miR-21 reporter, rising signal. 340,000 tested, under 10 active. Potency, µM (highest dose often 38.3 µM), for the others: at the highest dose reporter change, positive = more light. HeLa miR-21 FLuc reporter, luciferase, 48 h. AID 2288; active = well fitted rising curve with a large enough effect; inconclusive = small, poorly fitted or top-dose-only effect; inactive = no such curve, though single readings can be large or run the other way;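 further: % of control where 0% means no effect; miR-21 action dims this reporter so a rising signal means less miR-21 action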
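Using DMEM plus 10% FBS, HeLa miR-21-FLuc cells are incubated with test compounds (final up to about 40uM) for 48 hours; firefly luciferase signal is then imaged following reagent-mediated lysis.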
p53 reactivation = re-activators of mutant p53; AID 504706; H1299 p53-A138V BP100-luciferase reporter, luminescence, 24 h; Potency, µM (titrated, usually from 92.2 µM), for inactives: at the top dose activity change, positive = activation, usual class: activators; hit rate 0.063% among 320,000; further: potency means the concentration at half of the fitted maximal effect; % of control where 0% means no effect; nearly all actives have a fitted effect of over 45% in size
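H1299 (p53-null), stable ts p53-A138V + BP100-Luc; 1000 cells/well, Opti-MEM/10% FBS; cpd 4 pt, 1:5; 24 h, 37 deg C, 5% CO2; detection reagent 10 min RT; luminescence.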
ClpP mod = qHTS Assay for Activators of ClpP | ATP-dependent Clp protease proteolytic subunit (Bacillus subtilis (strain 168)), P80244 | purified B. subtilis ClpP, FRET peptide cleavage, 20 min | Potency, µM (top dose mostly 57.5 µM), for the others: top-dose activity change, negative = active | hit rate 1.9% among 340,000 | AID 651965, 2013; active means well fitted falling curve with a large enough effect; inconclusive means small, poorly fitted or top-dose-only effect; inactive means no such curve, though single readings can be large or run the other way; further: potency means the concentration at half of the fitted maximal effect; the source files actives as falling curves though it sought activators and does not explain the sign; nearly all actives have a fitted effect of over 65% in size
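FRET quenching reversal measured ClpP activation: 10 microg/mL B. subtilis ClpP at pH 8 with the FRET-FV decapeptide, read at 430 nm after 320 nm excitation. The 20-min minus 0-min signal was scaled between DMSO/no-enzyme wells and ADEP (5.8 microM final).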
Nrf2 activator = Nrf2 pathway activation. AREc32 ARE-luciferase reporter (MCF7-derived line), luminescence, 24 h. hit rate 0.31% among 410,000. Potency, µM (highest dose often 46.1 µM), for the others: top-dose activation, actives largely listed as activators; further: potency means the concentration at half of the fitted maximal effect; % of control where 0% means no effect; nearly all actives have a fitted effect of over 65% in size
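ARE activation measured as luciferase luminescence (Steady-Glo, 30 min RT) in AREc32_Fluc cells after 24 hr compound exposure at 37 deg C, 5% CO2; cells seeded overnight at 1000/well in OPTI-MEM, 5% FBS.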
The depositor's hits bear a star; ? = inconclusive; / = no result given. In the library only some 3.7% were active in any assay of this set; here they are far more common. Unless noted, the call rests on the fitted dose curve; in most records, active means well fitted curve in the direction sought with a large enough effect; inconclusive means small, poorly fitted or top-dose-only effect, or another doubt; inactive means no such curve, though single readings can be large; an effect the other way counts as inactive or inconclusive.

Chains of the proteins cited; added tags and fusions are not shown.
ATP-dependent Clp protease proteolytic subunit (Bacillus subtilis (strain 168)), P80244, UniProt P80244, whole entry, looked up: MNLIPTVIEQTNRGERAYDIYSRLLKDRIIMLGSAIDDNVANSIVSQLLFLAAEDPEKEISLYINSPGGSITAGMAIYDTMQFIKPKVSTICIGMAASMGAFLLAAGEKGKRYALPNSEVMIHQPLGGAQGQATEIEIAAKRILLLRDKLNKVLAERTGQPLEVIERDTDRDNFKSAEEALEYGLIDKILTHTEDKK

Order of values: A549 viability, Nrf2 block, miR-21 reporter, p53 reactivation, ClpP mod, Nrf2 activator
1) C[C@@H]1CN([C@@H](C)CO)C(=O)CCCn2nncc2CO[C@@H]1CN(C)S(=O)(=O)c1ccccc1
 : /, /, /, /, 3%, 0%
2) COc1cc(NC(=O)c2cc3ccccc3cc2OC)ccc1NC(=O)c1cccs1
 : -10%, 5.2µM*, 5%, -13%, ?, -1%
3) Cc1ccc2c(c1)c1cccc3c1n2CCN3CCC(N)=O
 : -2%, ?, -68%, ?, 14µM*, 6%
4) O=C(O)COc1ccccc1/C=N/NC(=O)c1cc(-c2ccc(Cl)cc2)nc2ccccc12
 : 11%, 2%, -5%, -3%, /, 10%
5) O=C(N/N=C/c1ccccn1)c1cc(-c2ccc(Cl)cc2)nc2ccccc12
 : ?, 9.2µM*, 11%, ?, 0%, 8%
6) CCCOc1cccc(-c2cc(C(=O)N/N=C/c3ccccn3)c3ccccc3n2)c1
 : -11%, ?, 13%, ?, -23%, 14%
7) O=C(N/N=C/c1ccccn1)c1cc(-c2ccc(Br)cc2)nc2ccccc12
 : ?, 13µM*, 2%, ?, -1%, 0%
8) CCC1=C(c2ccc(C)cc2)S(=O)(=O)N=C1N1CCC(C(=O)NCc2ccc(N(C)C)cc2)CC1
 : 0%, ?, 8%, /, -10%, 0%
9) O=C(CN1C(=O)c2cccc3cccc1c23)NCC1CCCO1 (stereo not given)
 : ?, /, -8%, -4%, 25µM*, 3%
10) CC(C)C(NC(=O)CN1C(=O)c2cccc3cccc1c23)C(C)C
 : 1%, -10%, -14%, 6%, ?, 0%
11) CCCC(C)NC(=O)CN1C(=O)c2cccc3cccc1c23 (stereo not given)
 : 1%, -10%, -16%, /, 22µM*, 0%
12) N#CC1(NC(=O)CSc2n[nH]c(-c3ccccc3)n2)CCCCC1
 : 1%, 4%, /, -2%, 14µM*, 0%
13) Cc1cc(SCC(=O)NC2(C#N)CCCCC2)nc2c(C)cccc12
 : -6%, -1%, /, 4%, 32µM*, 0%
14) O=C(CSc1n[nH]c(-c2ccccc2)n1)Nc1ncccn1
 : 0%, 21%, -26%, 3%, /, 4%
15) COc1ccc(-c2cc(C(F)(F)F)nc(SCC(=O)N3CCCCC3)n2)cc1OC
 : -9%, -6%, -6%, /, 4%, 0%
16) Nn1c(Nc2ccccc2)nc2sc3c(c2c1=O)CCC3
 : -13%, 16µM*, -26%, 28%, -13%, 4%
17) Cc1ccnc(NS(=O)(=O)c2ccc(N3C(=O)C4CCCCC4C3=O)cc2)n1 (stereo not given)
 : -2%, -9%, 8%, 6%, /, 0%
18) O=C1C2CCCCC2C(=O)N1c1ccc(S(=O)(=O)Nc2ncccn2)cc1 (stereo not given)
 : -1%, -2%, 3%, 1%, 16µM*, -1%
19) COc1ccc(NC(=O)C2CCCN(c3ncnc4onc(C)c34)C2)cc1OC (stereo not given)
 : 0%, /, -2%, /, 3%, 3%
20) O=C(Nc1cccc(C(F)(F)F)c1)C1CCN(S(=O)(=O)c2cccc3nsnc23)CC1
 : -4%, 21µM*, 0%, /, 5%, 8%

One compound at a time, from the list above. Screens in order: A549 viability	Nrf2 block	miR-21 reporter	p53 reactivation	ClpP mod	Nrf2 activator
`COc1ccc(-c2cc(C(F)(F)F)nc(SCC(=O)N3CCCCC3)n2)cc1OC` is listed with -9%	-6%	-6%	/	4%	0%
`COc1ccc(NC(=O)C2CCCN(c3ncnc4onc(C)c34)C2)cc1OC` (stereo not given) is listed with 0%	/	-2%	/	3%	3%
`Nn1c(Nc2ccccc2)nc2sc3c(c2c1=O)CCC3` is listed with -13%	16µM*	-26%	28%	-13%	4%
`Cc1ccnc(NS(=O)(=O)c2ccc(N3C(=O)C4CCCCC4C3=O)cc2)n1` (stereo not given) is listed with -2%	-9%	8%	6%	/	0%
`Cc1cc(SCC(=O)NC2(C#N)CCCCC2)nc2c(C)cccc12` is listed with -6%	-1%	/	4%	32µM*	0%

Additional compounds:
Order of values: A549 viability, Nrf2 block, miR-21 reporter, p53 reactivation, ClpP mod, Nrf2 activator
21) Cc1ccnc(N2CCC(C(=O)Nc3cccc(C(F)(F)F)c3)CC2)n1
 : /, 13µM*, 8%, 2%, -27%, 0%
22) Cc1noc2ncnc(N3CCCC(C(=O)Nc4cccc(C(F)(F)F)c4)C3)c12 (stereo not given)
 : -12%, 5.8µM*, 12%, /, -3%, 3%
23) Cc1ccc(NC(=O)C2CCN(S(=O)(=O)c3cccc4nsnc34)CC2)cc1F
 : 14%, 0%, 0%, /, 4%, -1%
24) O=C(NCC(c1cccnc1)N1CCc2ccccc21)c1cccc(Br)c1 (stereo not given)
 : 0%, 16µM*, 26%, /, 1%, -3%
25) COc1ccc2c(c1)c(=O)oc1cc(OCC(=O)N3CCCC(C)C3)ccc12 (stereo not given)
 : -13%, /, -4%, -12%, ?, 5%
26) CCC1CCCCN1C(=O)COc1ccc2c3c(c(=O)oc2c1)CCC3 (stereo not given)
 : 3%, -18%, /, -5%, 28µM*, 0%
27) COc1ccc2c(c1)c(=O)oc1cc(OCC(=O)N3CCc4ccccc4C3)ccc12
 : /, ?, 0%, -2%, 4.5µM*, 0%
28) COc1ccc2c(c1)c(=O)oc1cc(OCC(=O)N3CCC(C)CC3)ccc12
 : ?, ?, -1%, 1%, 18µM*, 0%
29) CC(C)C(=O)Nc1ccc(NC(=S)NC(=O)c2ccc([N+](=O)[O-])cc2)cc1
 : 10%, -15%, -8%, 1%, 1%, 0%
30) CC(=O)Nc1ccc(NC(=S)NC(=O)c2ccc([N+](=O)[O-])cc2)cc1
 : -6%, -4%, -3%, -6%, 6.3µM*, 3%
31) O=C(NNC(=S)NC(=O)c1ccc(Br)cc1)c1ccc([N+](=O)[O-])cc1
 : -2%, 21µM*, -14%, 2%, 0%, 3%
32) O=C(NNC(=O)c1ccc([N+](=O)[O-])cc1)c1ccc(Br)cc1
 : 3%, -19%, 0%, -5%, -3%, -1%
33) Cc1ccc(C)c(Cn2c(=O)n(CCCCC(=O)NCc3ccc4c(c3)OCO4)c(=O)c3ccccc32)c1
 : 2%, -13%, 1%, /, 0%, -1%
34) Cc1ccnc2cc(Cl)c(Cl)cc12
 : /, /, /, /, -1%, /
35) O=[S+]([O-])(c1ccc2c(c1)OCCO2)N1CCN([S+](=O)([O-])c2c(F)cc(F)cc2Br)CC1
 : -3%, 13%, /, /, /, /
36) Cc1nn(C)c(Cl)c1S(=O)(=O)N1CCC(CO)(CCc2ccccc2)CC1
 : -10%, 21µM*, 8%, 0%, -2%, 0%
37) COc1ccc(CC2(CO)CCN(S(=O)(=O)c3c(C)nn(C)c3Cl)CC2)cc1
 : -4%, 2%, -5%, -3%, -2%, 1%
38) CC(=O)Nc1ccc(NC(=O)c2c(C)c(-c3ccccc3)nc3ccccc23)cc1
 : -9%, -12%, /, /, 0%, -2%
39) O=C(NCc1cccc(Cl)c1)NCc1noc2ccccc12
 : 5%, 19%, -40%, /, 4%, 6%
40) COCCNc1oc(/C=C/c2ccccc2)nc1C#N
 : -5%, ?, -71%, 11%, 0%, 2%
41) CNc1oc(/C=C/c2ccccc2)nc1C#N
 : 5%, ?, -89%, ?, -1%, 2.8µM*
42) CC(C)(C)CC(C)(C)N=C1Nc2ccc([N+](=O)[O-])cc2N[C@]12C[C@H]1CCCC(=O)N3CC[C@@H](C2)[C@@H]13
 : /, /, /, /, 4%, /

Source: PubChem BioAssay (National Center for Advancing Translational Sciences (NCATS))
